Assay results as given in patent US6989362B1, “Methods of treating dopamine dysregulation using agents that regulate phosphorylation/dephosphorylation in dopamine signaling” (The Rockefeller University, priority 1999, dated 2006).

System: Cdk5
Test: Cocaine-induced locomotor activity with intra-accumbens infusion of Cdk5 inhibitors
Format: in vivo, rat
Settings: rats

## CC[C@H](CO)Nc1nc(NCc2ccccc2)c2ncn(C(C)C)c2n1 [roscovitine]
  locomotor behavior: increases
Daily intra-accumbens 40 nmol/0.5 μl, cocaine 15 mg/kg i.p., 5 days
  locomotor effects of repeated cocaine exposures: markedly potentiated
intra-accumbens 40 nmol/0.5 μl, cocaine 15 mg/kg i.p.
  locomotor responses to initial cocaine administration: did not significantly affect
